# Source: PubChem BioAssay AID1992 (Sanford-Burnham Center for Chemical Genomics, 2009)
# Sequences of proteins named here, by UniProt entry; tags and fusion partners are left off.
# UniProt P51452, whole entry: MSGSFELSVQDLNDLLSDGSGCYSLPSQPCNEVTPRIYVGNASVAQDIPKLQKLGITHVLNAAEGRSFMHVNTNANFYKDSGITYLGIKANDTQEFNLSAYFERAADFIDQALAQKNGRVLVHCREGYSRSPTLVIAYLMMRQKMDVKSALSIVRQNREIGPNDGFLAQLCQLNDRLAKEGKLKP
# This is a selection; strong and weak results do not stand in their true shares. Active and inactive are the calls of the source. No stated cut-off is given here; in the data, active means inhibition above about 60%; inactive means the rest.
# Target: Dual specificity protein phosphatase 3 (Homo sapiens) (UniProt P51452)
# Assay: human DUSP3 activity blockers – biochemical, colorimetric, HTS, primary screen (AID 1992)
# Details: recombinant VHR phosphatase, colorimetric substrate read-out; at 20 µM; stronger effect = higher value
row,SMILES,inhibition
1,CP(=O)(Oc1ccc(F)cc1)Oc1ccc(F)cc1,inactive: -8.7%
2,CCc1ccc(OP(C)(=O)O)cc1,inactive: 1.5%
3,CN(C)CCOC(=O)C(O)(c1ccccc1)c1ccccc1,inactive: -2.3%
4,CP(=O)(Oc1ccccc1F)Oc1ccccc1F,inactive: -10.4%
5,CP(=O)(Oc1ccccc1)Oc1ccccc1,inactive: -14.1%
6,CP(=O)(Oc1ccc(Cl)cc1)Oc1ccc(Cl)cc1,inactive: -13.6%
